# scFv variants of Ab-95 (light chain) against a SARS-CoV-2 spike peptide

Values reported by Engelhart et al. 2022, doi:10.1038/s41597-022-01779-4 (FLAb copy).

The target is the same throughout: PDVDLGDISGINAS, from the HR2 region of SARS-CoV-2 spike.

Each scFv is VH, the linker GGGGSGGGGSGGGGS, VL, as in the parent Ab-95, and differs from it in the CDRs of the light chain only.
VH: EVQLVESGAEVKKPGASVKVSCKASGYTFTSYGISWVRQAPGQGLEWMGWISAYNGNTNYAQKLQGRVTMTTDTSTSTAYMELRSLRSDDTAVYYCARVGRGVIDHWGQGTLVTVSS
VL: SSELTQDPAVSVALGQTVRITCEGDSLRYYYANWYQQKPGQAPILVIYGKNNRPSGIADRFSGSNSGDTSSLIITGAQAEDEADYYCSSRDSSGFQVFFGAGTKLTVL

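The parent was found by panning a naive human phage display library on the peptide. The library (AAYL52) carries one to three amino acid substitutions per variant, with no insertions or deletions. AlphaSeq pools MATa yeast showing the antibodies with MATalpha yeast showing the peptide. Binding brings cells together so that they mate, and sequencing counts the barcode pairs among the diploids. Scores were corrected for input abundance and mapped to Kd with protein pairs of known affinity run in the same pool. Mating was done three times.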

Variants are written as CDR1, CDR2 and CDR3 of the light chain (limits as in the source). Parent: EGDSLRYYYAN, GKNNRPS, SSRDSSGFQVF. Values are log10 of the apparent Kd in nM; lower means stronger binding. Replicates are averaged; those with no signal do not enter the mean. A pair that was not seen in that replicate is written "nd"; this usually means weak binding, but a binder can also be missed. In this assay the parent's reference entry averaged 2.31; its copy inside this library read 2.25. Background: pairings of library AAYL52 with three empty control strains gave a value in 28% of cases (median 3.91, 5th percentile 2.90). Values in that range, when seen in few replicates, are hard to tell from nonspecific mating. Also given: how often the same scFv was detected with the empty control strains, with their mean in brackets.

| CDR-L1 | CDR-L2 | CDR-L3 | log10 Kd, replicates | log10 Kd (nM), mean | control signals |
|---|---|---|---|---|---|
| EGDSPRYYYAN | NKNNRPS | SSRDRSGFQVF | 4.18 / nd / nd | 4.18 | 2/9 (4.03) |
| EGDSQRYYYAN | GTNNRPS | SGRDSSGFQVF | 2.88 / 3.58 / 2.89 | 3.12 | 3/9 (3.38) |
| EGDSLRYHYAN | GKNNRPS | SSRDSTGRQVF | 1.83 / 1.71 / 1.52 | 1.69 | 1/9 (2.56) |
| VGDSLRYYYAN | GTNNRPS | SSRDSSGKQVF | 3.68 / 3.55 / 3.05 | 3.43 | 2/9 (3.49) |
| EADSLWYYYAN | GKNNRSS | SSRDSSGFQVF | nd / nd / 3.99 | 3.99 | 0/9 |
| EGDTLRYYYAN | GKNNRPS | SSRRESGFQVF | nd / nd / nd | nd | 1/9 (3.20) |
| EDDSLRYYYAN | GKNNKPS | SSRDSSGFSVF | 3.05 / 3.64 / 3.00 | 3.23 | 2/9 (3.90) |
| EGDSLGYYYAN | GKNNRPS | SSRDSSRFQVF | 2.45 / 2.32 / 1.87 | 2.21 | 2/9 (3.62) |
| EGDSLRYYYAQ | GKNNRPS | SSRDSLRFQVF | 4.44 / nd / nd | 4.44 | 2/9 (3.77) |
| ETDSLRYYYAN | GCQNRPS | SSRDSSGFQVF | nd / nd / nd | nd | 0/9 |
| EGDSLFYYYAN | GKNNLPS | SSNDSSGFQVF | nd / nd / 3.95 | 3.95 | 1/9 (3.09) |
| EGDSKSYYYAN | GKNNRPS | SSRDSSGFQVF | 2.49 / 2.18 / 1.69 | 2.12 | 5/9 (4.35) |
| EGDSLRYYYAN | GKNNRPS | DSGDSSGFQVI | 4.62 / nd / nd | 4.62 | 1/9 (4.72) |
| EGDSLRYDYAN | GKNNRPS | ISRDKSGFQVF | 3.16 / 3.32 / nd | 3.24 | 1/9 (2.75) |
| EGDSPRYYYAN | MKNNRPS | SSRDSSGFQIF | nd / nd / nd | nd | 2/9 (4.26) |
| CLDSLRYYYAN | GKNNRPS | SSRDTSGFQVF | nd / nd / nd | nd | 0/9 |
| EGDSLLYYIAN | GKNNRNS | SSRDSSGFQVF | nd / 4.36 / nd | 4.36 | 1/9 (4.19) |
| MGDSLRYYYAN | GKNNHPK | SSRDSSGFQVF | 2.89 / 2.87 / 2.49 | 2.75 | 2/9 (4.17) |
| EGDSLRYYYAN | PKNNRPS | SSRDSSKVQVF | 4.25 / nd / nd | 4.25 | 3/9 (3.44) |
| ECDSLRYYIVN | GKNNRPS | SSRDSSGFQVF | nd / nd / nd | nd | 3/9 (3.35) |
| EGDSLKYYYAN | GKWNRPL | SSRDSSGFQVF | 3.53 / 3.47 / 3.25 | 3.42 | 4/9 (4.11) |
| EGDSLRYYYAN | EKKNRPS | SSRDSSGRQVF | nd / 3.04 / 3.95 | 3.49 | 4/9 (4.40) |
| EGDSLRYYMAN | GKNNRPS | SSIDSSGFCVF | 2.30 / 2.27 / 1.82 | 2.13 | 3/9 (3.98) |
| EGDHLRYYYAN | GKNNYPS | SERDSSGFQVF | 5.00 / nd / nd | 5.00 | 2/9 (2.82) |
| EGDSLWYYYAN | GKNNRPS | SSDDVSGFQVF | nd / nd / nd | nd | 1/9 (3.79) |
| EGDSLRYYYAN | RKNNRAS | SLRDSSGFQVF | nd / nd / nd | nd | 2/9 (3.35) |
| EWDSLQYYYAN | GNNNRPS | SSRDSSGFQVF | 3.46 / 3.14 / 3.41 | 3.34 | 1/9 (4.09) |
| EGISLRYYYAN | GKNNRPS | SSRMSSGFQVF | 2.07 / 2.12 / 1.15 | 1.78 | 1/9 (3.84) |
| EGDFLRYSYAN | GKNNRPS | SSRDSSGFQVF | 1.54 / 1.51 / 1.05 | 1.37 | 4/9 (4.18) |
| EGTSLRYYYAN | GKNNRPS | SSRDNSGEQVF | 3.27 / 2.62 / 2.78 | 2.89 | 6/9 (4.23) |
| EGDSLRYYYAN | GKNNTHS | QSRDSSGFQVF | 4.11 / 3.65 / 3.40 | 3.72 | 3/9 (3.34) |
| EGDSLRYNYAN | GENNRPS | SSRDSSGFYVF | 0.75 / 0.58 / -0.02 | 0.43 | 2/9 (4.61) |
| EGDSLRYYYAN | GQNNDPS | SSRDSSGKQVF | nd / nd / nd | nd | 1/9 (4.41) |
| EGESLRYYYAN | GKNNRPS | SSRDSEGIQVF | 3.18 / 3.91 / 3.41 | 3.50 | 1/9 (3.78) |
| EGDSLRYYYAN | GKNNRPQ | SSRDSSGFIHF | nd / nd / nd | nd | 0/9 |
| EGDSLRYYYAN | GKNNRPT | SSRDSSGFQVF | 2.07 / 1.83 / 1.79 | 1.90 | 2/9 (3.63) |
| EGDSLCYYYAN | GKNNRPS | SSWDSSGFPVF | 3.42 / 3.22 / 3.02 | 3.22 | 3/9 (4.11) |
| EGDQLRYYYWN | GKNNRPS | HSRDSSGFQVF | nd / 5.56 / 3.58 | 4.57 | 4/9 (3.76) |
| NGDSLRYYYAN | GKNNRPW | SSRRSSGFQVF | 4.01 / nd / 4.16 | 4.08 | 4/9 (3.72) |
| EGDMLRYYYAN | GKNKRPF | SSRDSSGFQVF | 4.08 / 3.31 / 3.95 | 3.78 | 3/9 (4.52) |
| EGDSLRYYYAN | NENNRPS | SSRDSSGFVVF | 2.69 / 2.50 / 2.54 | 2.58 | 4/9 (4.30) |

For reference, 5 entries of the list once more:

| CDR-L1 | CDR-L2 | CDR-L3 | log10 Kd, replicates | log10 Kd (nM), mean | control signals |
|---|---|---|---|---|---|
| EGESLRYYYAN | GKNNRPS | SSRDSEGIQVF | 3.18 / 3.91 / 3.41 | 3.50 | 1/9 (3.78) |
| EGDSLRYYYAN | NENNRPS | SSRDSSGFVVF | 2.69 / 2.50 / 2.54 | 2.58 | 4/9 (4.30) |
| MGDSLRYYYAN | GKNNHPK | SSRDSSGFQVF | 2.89 / 2.87 / 2.49 | 2.75 | 2/9 (4.17) |
| EGDSLRYYYAN | GKNNRPT | SSRDSSGFQVF | 2.07 / 1.83 / 1.79 | 1.90 | 2/9 (3.63) |
| EGDSQRYYYAN | GTNNRPS | SGRDSSGFQVF | 2.88 / 3.58 / 2.89 | 3.12 | 3/9 (3.38) |